Patent publication US8969343B2, “Histone demethylase inhibitors” (priority 2012, dated 2015)

Biological target: T1, JMJD2C (Homo sapiens, UniProt Q9H3R0)
T1 sequence (Q9H3R0 2-372): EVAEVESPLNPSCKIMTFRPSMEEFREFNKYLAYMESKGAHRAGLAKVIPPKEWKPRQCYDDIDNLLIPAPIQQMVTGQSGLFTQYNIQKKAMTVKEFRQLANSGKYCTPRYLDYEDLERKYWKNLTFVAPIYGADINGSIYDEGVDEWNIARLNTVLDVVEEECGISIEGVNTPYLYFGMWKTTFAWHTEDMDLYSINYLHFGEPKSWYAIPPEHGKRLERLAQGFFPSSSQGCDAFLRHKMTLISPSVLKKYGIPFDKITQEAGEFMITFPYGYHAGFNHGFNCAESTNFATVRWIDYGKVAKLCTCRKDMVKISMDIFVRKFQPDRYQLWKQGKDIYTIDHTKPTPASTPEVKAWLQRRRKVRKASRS
Experiment: JMJD2C in vitro enzyme inhibition assay (TR-FRET)
Assay type: biochemical

## O=C(O)c1ccncc1Nc1nn(C2CCOC2)c2c1CCCC2 (stereo not shown) [Example 65, 3-{[1-(tetrahydrofuran-3-yl)-4,5,6,7-tetrahydro-1H-indazol-3-yl]amino}pyridine-4-carboxylic acid]
  IC50: 0.1 to 1 µM
